Data: ChEMBL document CHEMBL5512680, “Design, Synthesis, and Biological Evaluation of New 2,6,7-Substituted Purine Derivatives as Toll-like Receptor 7 Agonists for Intranasal Vaccine Adjuvants” (J Med Chem, 2024)

How the values were obtained:
[1] = target: T1, Toll-like receptor 7 (Mus musculus) (UniProt P58681); test: Agonist activity at mouse TLR7 expressed in HEK293 cells co-expressing NF-kappaB/AP-1 inducible SEAP reporter gene at 3.7 uM measured for 24 hrs by colorimetric analysis relative to control; format: cell-based
T1 sequence (whole entry): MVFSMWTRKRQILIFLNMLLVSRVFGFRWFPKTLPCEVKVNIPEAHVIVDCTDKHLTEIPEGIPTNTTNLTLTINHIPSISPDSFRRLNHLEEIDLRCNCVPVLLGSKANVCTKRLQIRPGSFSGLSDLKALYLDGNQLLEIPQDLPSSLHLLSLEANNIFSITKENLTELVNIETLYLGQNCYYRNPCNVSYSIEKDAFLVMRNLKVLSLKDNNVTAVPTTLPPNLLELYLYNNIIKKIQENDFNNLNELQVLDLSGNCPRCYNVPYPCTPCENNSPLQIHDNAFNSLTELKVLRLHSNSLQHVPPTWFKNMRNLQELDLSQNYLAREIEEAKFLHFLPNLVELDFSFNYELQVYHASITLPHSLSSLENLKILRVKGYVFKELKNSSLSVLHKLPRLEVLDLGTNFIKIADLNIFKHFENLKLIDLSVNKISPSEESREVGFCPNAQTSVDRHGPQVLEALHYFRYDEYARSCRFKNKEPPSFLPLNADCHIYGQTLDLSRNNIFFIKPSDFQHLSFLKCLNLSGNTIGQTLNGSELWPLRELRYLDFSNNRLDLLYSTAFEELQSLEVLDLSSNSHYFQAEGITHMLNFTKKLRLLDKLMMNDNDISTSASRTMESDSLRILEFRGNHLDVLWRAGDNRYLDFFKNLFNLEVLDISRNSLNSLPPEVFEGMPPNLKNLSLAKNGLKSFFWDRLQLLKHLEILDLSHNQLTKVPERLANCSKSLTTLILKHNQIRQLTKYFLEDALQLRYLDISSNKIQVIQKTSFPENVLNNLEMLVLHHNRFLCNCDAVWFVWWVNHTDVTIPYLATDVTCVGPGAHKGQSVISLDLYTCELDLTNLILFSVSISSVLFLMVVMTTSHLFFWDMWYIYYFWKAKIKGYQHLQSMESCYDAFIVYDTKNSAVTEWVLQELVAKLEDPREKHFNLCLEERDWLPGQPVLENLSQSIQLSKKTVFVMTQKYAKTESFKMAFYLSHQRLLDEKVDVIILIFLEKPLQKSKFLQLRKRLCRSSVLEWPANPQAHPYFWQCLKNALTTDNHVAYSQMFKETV

[2] = target: T2, Toll-like receptor 8 (Mus musculus) (UniProt P58682); test: Agonist activity at mouse TLR8 expressed in HEK293 cells co-expressing NF-kappaB/AP-1 inducible SEAP reporter gene at 1 to 100 uM measured for 24 hrs by colorimetric analysis; format: cell-based; details: dose 1-100 µM
T2 sequence (whole entry): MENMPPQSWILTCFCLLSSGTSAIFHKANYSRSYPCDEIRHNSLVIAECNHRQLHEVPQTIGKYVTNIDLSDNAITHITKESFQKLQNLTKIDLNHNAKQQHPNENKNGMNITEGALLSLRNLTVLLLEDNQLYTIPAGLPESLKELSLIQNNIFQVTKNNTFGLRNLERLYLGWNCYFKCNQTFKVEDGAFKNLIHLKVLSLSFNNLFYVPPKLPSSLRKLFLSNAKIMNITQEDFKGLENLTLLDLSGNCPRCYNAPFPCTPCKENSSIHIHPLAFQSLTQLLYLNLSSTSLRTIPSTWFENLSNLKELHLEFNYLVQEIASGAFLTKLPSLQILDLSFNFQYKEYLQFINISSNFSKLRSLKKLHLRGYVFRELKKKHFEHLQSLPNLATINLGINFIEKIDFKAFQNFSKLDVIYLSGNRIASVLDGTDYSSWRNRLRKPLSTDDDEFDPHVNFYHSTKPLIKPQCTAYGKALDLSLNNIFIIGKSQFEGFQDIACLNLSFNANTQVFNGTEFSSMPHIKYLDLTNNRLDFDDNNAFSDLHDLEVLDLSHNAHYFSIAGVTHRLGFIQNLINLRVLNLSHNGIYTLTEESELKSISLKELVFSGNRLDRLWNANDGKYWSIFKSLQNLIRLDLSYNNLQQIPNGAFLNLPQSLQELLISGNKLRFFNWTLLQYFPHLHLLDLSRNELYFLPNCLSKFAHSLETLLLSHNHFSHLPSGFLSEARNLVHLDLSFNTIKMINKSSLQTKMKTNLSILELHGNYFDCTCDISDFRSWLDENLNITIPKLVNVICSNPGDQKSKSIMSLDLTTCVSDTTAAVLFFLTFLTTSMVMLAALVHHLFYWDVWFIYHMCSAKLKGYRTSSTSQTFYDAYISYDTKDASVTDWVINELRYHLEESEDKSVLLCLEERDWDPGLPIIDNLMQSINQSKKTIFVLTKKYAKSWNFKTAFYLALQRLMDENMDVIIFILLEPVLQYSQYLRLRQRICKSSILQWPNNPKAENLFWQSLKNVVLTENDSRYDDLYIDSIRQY

Row | Structure (SMILES) | Emax [1] [%] | Activity [2]
1 | CCOCc1nc2c(N)nc3ccccc3c2n1CC(C)(C)C | 0.633 | 
2 | CCCCNc1nc(N)nc2ncn(Cc3ccc(CN(CC)CC)cc3OC)c12 |  | inactive

Activity calls are given as the source filed them. The rule behind the calls is not given here.
